Source: article PMC8954350, “Non-Canonical Cannabinoid Receptors with Distinct Binding and Signaling Properties in Prostate and Other Cancer Cell Types Mediate Cell Death” (International Journal of Molecular Sciences, 2022)

Chains of the proteins cited; added tags and fusions are not shown.
UniProt P34972, whole entry: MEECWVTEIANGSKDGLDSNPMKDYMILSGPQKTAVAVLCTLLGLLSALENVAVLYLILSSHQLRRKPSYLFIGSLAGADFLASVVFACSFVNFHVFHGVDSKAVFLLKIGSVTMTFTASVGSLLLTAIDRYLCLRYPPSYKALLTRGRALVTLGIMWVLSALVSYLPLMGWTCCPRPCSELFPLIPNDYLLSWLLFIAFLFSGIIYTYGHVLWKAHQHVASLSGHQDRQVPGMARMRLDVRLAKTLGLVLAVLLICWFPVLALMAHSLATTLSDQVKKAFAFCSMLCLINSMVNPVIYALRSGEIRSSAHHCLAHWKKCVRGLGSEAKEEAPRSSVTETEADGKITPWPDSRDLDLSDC
UniProt P47746, whole entry: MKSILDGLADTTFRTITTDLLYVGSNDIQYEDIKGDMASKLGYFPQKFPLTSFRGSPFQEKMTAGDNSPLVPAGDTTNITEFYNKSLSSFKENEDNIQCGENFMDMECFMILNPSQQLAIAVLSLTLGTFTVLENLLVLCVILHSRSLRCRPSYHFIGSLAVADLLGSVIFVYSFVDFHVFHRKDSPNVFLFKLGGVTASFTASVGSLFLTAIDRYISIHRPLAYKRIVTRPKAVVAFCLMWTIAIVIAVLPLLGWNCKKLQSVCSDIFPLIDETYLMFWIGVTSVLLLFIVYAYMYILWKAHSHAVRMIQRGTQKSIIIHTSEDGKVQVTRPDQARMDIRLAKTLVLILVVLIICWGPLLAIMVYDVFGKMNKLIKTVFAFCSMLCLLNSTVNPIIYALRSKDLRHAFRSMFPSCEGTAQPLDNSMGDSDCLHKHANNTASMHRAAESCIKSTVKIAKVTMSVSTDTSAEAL

Assays:
[1] = target: T1, canonical CBRs stably expressed in CHO-hCB2 (Homo sapiens, UniProt P34972); assay: Adenylyl cyclase modulation in whole CHO-hCB2 cells; format: cell-based; settings: 10 μM
T1 construct: expressed in transfected cells

[2] = target: T2, canonical mouse CB1Rs (mouse brain) (Mus musculus, UniProt P47746); format: binding; settings: 1 μM ligand, mouse brain membranes
T2 construct: membranes prepared from mouse brain containing a high density of mouse CB1 receptors (mCB1); from tissue; host or cells: mouse brain membrane homogenate
Method: The assay was conducted as previously detailed. […] All binding reactions were conducted in triplicate, in a final volume of 1 mL, and, following mixing, were incubated for 20 min in a 37 °C water bath to achieve equilibrium. After incubation, reactions were terminated by rapid vacuum filtration through Whatman GF/B glass fiber filters (Brandel; Gaithersburg, MD, USA), followed by three washes of 4 mls of ice-cold filtration buffer (50 mM Tris, pH 7.4, and 0.05% bovine serum albumin). Samples were punched out from filter papers into scintillation vials, to which 4 mls of ScintiverseTM-BDR cocktail scintillation fluid (Fisher Scientific; Hampton, NH, USA) was added. Filters were incubated at room temperature for 24 h in scintillation fluid, vortexed, and radioactivity (measured as DPMs) was quantified via a liquid scintillation spectrophotometer (Tri Carb 2100 TR Liquid Scintillation Analyzer, Packard Instruments, Meriden, CT, USA).

With Cc1c(C(=O)c2cccc3ccccc23)c2cccc3c2n1[C@H](CN1CCOCC1)CO3 [WIN-55,212-2] the “reduction of forskolin-stimulated intracellular cAMP levels” value [1] was 71.3 ± 8.2%, the “displacement of [^3H]CP-55,940” value ([2]; 0.2 nM radioligand) was “produced near or complete displacement” and the “displacement of [^3H]WIN-55,212-2 (Figure 1B)” value ([2]; 1 nM radioligand) was “produced near or complete displacement”.
